The values below come from patent publication US7465751B2 (priority 2002, dated 2008).

Chains of the proteins cited; added tags and fusions are not shown.
UniProt P10980, whole entry, looked up: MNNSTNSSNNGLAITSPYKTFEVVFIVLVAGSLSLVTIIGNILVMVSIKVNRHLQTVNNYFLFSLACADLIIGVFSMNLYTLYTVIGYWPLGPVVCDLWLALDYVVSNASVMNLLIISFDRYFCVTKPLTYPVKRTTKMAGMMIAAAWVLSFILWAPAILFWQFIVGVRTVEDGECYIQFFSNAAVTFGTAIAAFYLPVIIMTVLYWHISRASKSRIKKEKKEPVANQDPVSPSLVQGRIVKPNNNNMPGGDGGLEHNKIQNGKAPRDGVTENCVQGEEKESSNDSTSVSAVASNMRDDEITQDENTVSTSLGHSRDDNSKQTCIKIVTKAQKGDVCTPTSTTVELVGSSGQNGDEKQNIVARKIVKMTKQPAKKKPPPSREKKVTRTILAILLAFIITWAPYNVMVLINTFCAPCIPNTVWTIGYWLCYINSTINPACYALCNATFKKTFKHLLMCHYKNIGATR
UniProt P08483, whole entry, looked up: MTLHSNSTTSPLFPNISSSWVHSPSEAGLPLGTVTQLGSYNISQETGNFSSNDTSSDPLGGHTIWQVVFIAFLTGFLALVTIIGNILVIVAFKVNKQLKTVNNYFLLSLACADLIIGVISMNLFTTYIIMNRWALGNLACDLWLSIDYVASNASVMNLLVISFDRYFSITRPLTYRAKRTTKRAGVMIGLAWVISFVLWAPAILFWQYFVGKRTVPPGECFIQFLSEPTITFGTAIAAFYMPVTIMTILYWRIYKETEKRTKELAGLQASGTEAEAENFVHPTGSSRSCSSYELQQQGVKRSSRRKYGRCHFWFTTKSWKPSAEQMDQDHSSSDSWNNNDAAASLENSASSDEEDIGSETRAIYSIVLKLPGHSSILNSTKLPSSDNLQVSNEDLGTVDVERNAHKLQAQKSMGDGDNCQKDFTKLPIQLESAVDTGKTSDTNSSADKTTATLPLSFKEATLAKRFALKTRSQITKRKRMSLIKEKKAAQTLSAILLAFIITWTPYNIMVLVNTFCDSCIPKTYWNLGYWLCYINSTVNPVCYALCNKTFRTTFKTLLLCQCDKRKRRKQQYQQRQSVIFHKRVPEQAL

In one assay the target is M2 muscarinic receptor (Rattus norvegicus, UniProt P10980). As to the kind of experiment: Radioligand binding assay, [3H]-N-methyl scopolamine, rat heart membranes. The following applies: [3H]-NMS, Ki by Cheng & Prusoff.
A further assay addresses M3 muscarinic receptor (Rattus norvegicus, UniProt P08483). The settings on record: rat submandibular gland membranes, [3H]-NMS, Ki by Cheng & Prusoff.

As for `O=C(N[C@H]1CCN(CCc2ccc3c(c2)OCO3)C1)C(O)(c1ccccc1)C1CCCC1` (stereo partly shown), on M2 muscarinic receptor, the “Receptor Binding Assay M2 PKi” value is on record as 5.75. The “Receptor Binding Assay M3 pki” value at M3 muscarinic receptor stood at 6.97.
`O=C(N[C@H]1CCN(Cc2ccccc2)C1)C(O)(c1ccccc1)C1CCCC1` (stereo partly shown): the “Receptor Binding Assay M2 PKi” value at M2 muscarinic receptor is given as below 5. At M3 muscarinic receptor, the “Receptor Binding Assay M3 pki” value was below 5.
